Source: patent US9593100B2, “Compounds and compositions as protein kinase inhibitors” (Array BioPharma, Inc., priority 2009, dated 2017)

Amino acid sequences for entries named in this document (tags omitted).
UniProt P15056, whole entry V600E: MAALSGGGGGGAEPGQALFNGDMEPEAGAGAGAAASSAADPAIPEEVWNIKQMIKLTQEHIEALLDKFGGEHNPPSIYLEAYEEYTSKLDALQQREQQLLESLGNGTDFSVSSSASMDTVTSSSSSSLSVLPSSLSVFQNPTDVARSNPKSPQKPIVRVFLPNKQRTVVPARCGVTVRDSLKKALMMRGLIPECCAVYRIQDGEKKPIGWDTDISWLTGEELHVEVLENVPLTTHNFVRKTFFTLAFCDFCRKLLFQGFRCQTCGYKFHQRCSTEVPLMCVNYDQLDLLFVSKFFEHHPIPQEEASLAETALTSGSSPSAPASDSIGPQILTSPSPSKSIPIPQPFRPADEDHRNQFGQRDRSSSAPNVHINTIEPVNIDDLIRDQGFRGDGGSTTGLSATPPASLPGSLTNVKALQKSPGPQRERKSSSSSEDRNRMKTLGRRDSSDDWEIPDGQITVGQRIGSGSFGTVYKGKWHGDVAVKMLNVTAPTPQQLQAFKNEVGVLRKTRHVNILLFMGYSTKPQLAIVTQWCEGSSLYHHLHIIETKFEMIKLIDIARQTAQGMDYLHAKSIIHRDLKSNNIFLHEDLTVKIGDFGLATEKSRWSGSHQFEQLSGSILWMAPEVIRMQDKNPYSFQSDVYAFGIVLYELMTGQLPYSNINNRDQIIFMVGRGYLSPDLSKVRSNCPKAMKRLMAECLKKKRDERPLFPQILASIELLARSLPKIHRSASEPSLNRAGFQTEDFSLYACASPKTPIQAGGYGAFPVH

Molecular target: B-Raf V600E (Homo sapiens (Human), UniProt P15056, V600E)
Experiment: B-Raf V600E/Mek Amplified Luminescence Proximity Homogeneous Assay (B-Raf V600E biochemical)
Conditions: IC50, B-Raf V600E/Mek Alpha Screen; read-out: BRAF V600E biochemical
Protocol: The plate was incubated for 60 minutes at room temperature.
The B-Raf kinase activity reaction was started by the addition of 10 μl per well of 2×ATP (10 μM) diluted in assay buffer. After 3 hours, the reactions were stopped with the addition of 10 μl of stop reagent (60 mM EDTA, 0.01% Tween20). Phosphorylated product was measured using a rabbit anti-p-MEK (Cell Signaling, #9121) antibody and the Alpha Screen IgG (ProteinA) detection Kit (PerkinElmer #6760617R), by the addition of 30 μl to the well of a mixture of the antibody (1:2000 dilution) and detection beads (1:1000 dilution of both beads) in bead buffer (50 mM Tris, pH 7.5, 0.01% Tween20). The additions were carried out under dark conditions to protect the detection beads from light. A lid was placed on top of the plate and the plate was incubated for 1 hour at room temperature. The luminescence was read on a PerkinElmer Envision instrument. The concentration of each compound for 50% inhibition (IC50) was calculated by non-linear regression using XL Fit data analysis software.

IC50: 23 nM
SMILES: COC(=O)N[C@@H](C)CNc1nccc(-c2cn(C(C)C)nc2-c2cc(F)cc(NS(=O)(=O)C3CC3)c2F)n1 [Compound 24, methyl N-[(2S)-1-({4-[3-(3-cyclopropanesulfonamido-2,5-difluorophenyl)-1-(propan-2-yl)-1H-pyrazol-4-yl]pyrimidin-2-yl}amino)propan-2-yl]carbamate]
